Test: In vitro gastrointestinal digestion assay (simulated stomach and duodenum)
Assay type: physicochemical
Method: An amount of the solid ligand-modified poly oxo-hydroxy ferric iron materials or control iron materials namely ferrous sulphate, ferric chloride, or unmodified ferric oxo-hydroxide, equivalent to 60 mg elemental iron, were added to a synthetic gastric (stomach) solution (50 mL of 2 g/L NaCl, 0.15 M HCl and 0.3 mg/mL porcine pepsin) and incubated at 37° C. for 30 minutes with radial shaking. […] The mixture was incubated at 37° C. for 60 min with radial shaking. Homogeneous Aliquots (1 mL) were collected at different time points during the process and centrifuged at 13,000 rpm for 10 minutes to separate the aggregate and aquated phases. The supernatant was analysed for iron content by ICPOES. […] The mass of remaining material (i.e. the wet pellet) was recorded. Concentrated HNO3 was added to this wet pellet and the new mass recorded. […] The starting amount of iron was calculated from the iron in the wet pellet plus the iron in the supernatant. To differentiate between soluble iron and aquated particulate iron in the supernatant, at each time point, this fraction was also ultrafiltered (Vivaspin 3,000 Da molecular weight cut-off polyethersulfone membrane, Sartorius Stedium Biotech GmbH, Goettingen, Germany) and again analysed by ICPOES. […]

With ferric pyrophosphate the “disaggregation under gastric and intestinal conditions (in words)” value was “failed to disaggregate properly”.
